Yeast UUG start: yeast start codon fidelity modulation. S. cerevisiae UUG-firefly luciferase reporter, luminescence/redox ratio. activity score, % at 18.7 µM. 0.13% of 350,000 active;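 active = replicate mean at a twofold rise or more, about +100% in these data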;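 also: firefly luciferase made from a UUG start codon reports start codon fidelity; reporter light over untreated wells divided by growth signal over untreated wells; some hits fall short of that in this replicate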
Cneo AK release: causes C. neoformans cell lysis; 0.2% of 360,000 active; AID 651654; adenylate kinase release luminescence, 4 h; normalised: neutral wells 0, clomiphene wells 100; lysis activity, % at 15 µM;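 active = mean lysis activity across replicates of at least 80%, whatever share of replicates individually reach that level; inactive = mean lysis activity below 80%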
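Assay system: Cryptococcus neoformans yeast cells / Dosing: single-point compound dose / Timing: 4 h at 37 °C static, read 1 h later / Measured by: luminescence of released adenylate kinase using an AK detection reagent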
miR-122 sensor: miR-122 inhibition in Huh7 cells | Huh7 miR-122 Renilla luciferase sensor, 48 h; neutral wells = 0, positive control = 100 | activation (reporter increase), % at 12.5 µM | 0.3% of 340,000 active;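 active = mean replicate activation score at least 90 and every replicate individually at or above 90; inconclusive = only one of the two criteria met; inactive = neither criterion met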;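 note: higher luciferase means less miR-122 activity so hits act as miR-122 inhibitors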
C2C12 statin: suppression of simvastatin myotoxicity | C2C12 myotubes + simvastatin, ATP luminescence, 48 h; scaled: DMSO 0, geranylgeraniol control 100 | rescue of ATP level, % at 7.49 µM | 0.78% of 330,000 active | AID 602340;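 active = mean ATP rescue above about 67%, or every replicate alone reaching that limit, limit read from the data, passing the limit was not always enough; inconclusive = no clear call, values can overlap the other calls; inactive = mean under the limit and some replicate under it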;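 note: myotubes were challenged with 10 µM simvastatin during compound exposure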
A number is an active result; n = inactive; u = inconclusive; x = no result given; [ ] = remark or other dose. Only some compounds are listed: those with a hit (about 1.2% of all), similar ones and a draw of the others.

SMILES	Yeast UUG start	Cneo AK release	miR-122 sensor	C2C12 statin
C[C@@H]1CN([C@@H](C)CO)C(=O)c2cc(NC(=O)Nc3cccc4ccccc34)ccc2O[C@@H]1CN(C)Cc1ccc(C(=O)Nc2ccccc2N)cc1	n	n	n	137
C[C@H](CO)N1C[C@H](C)[C@H](CN(C)Cc2ccc(C(=O)Nc3ccccc3N)cc2)Oc2ccc(NC(=O)Cn3cnnn3)cc2C1=O	n	n	n	100
C[C@@H]1CN([C@@H](C)CO)C(=O)c2cc(NC(=O)Nc3ccccc3)ccc2O[C@@H]1CN(C)Cc1ccc(C(=O)Nc2ccccc2N)cc1	n	n	170[16.7 µM]	n
C[C@@H]1CN([C@@H](C)CO)C(=O)c2cc(/C=C/c3ccccc3)cnc2O[C@H]1CN(C)C(=O)c1ccc(F)cc1	n	n	n	n
CC=Cc1ccc2n(c1=O)C[C@@H]1[C@@H](CO)[C@H](C(=O)N3CCc4ccccc4C3)N(C(=O)C3CC3)[C@H]21 (mixture of isomers)	x	97	x	n
CN1[C@H](C(=O)N2CCc3ccccc3C2)[C@@H](CO)[C@@H]2Cn3c(ccc(-c4cccnc4)c3=O)[C@@H]21	x	104	n	n
C[C@H](CO)N1C[C@H](C)[C@H](CN(C)C(=O)C2CCC2)Oc2ncc(-c3ccncc3)cc2C1=O	x	x	n	n
COc1cccc(/C=C/c2n[nH]c(=O)c(C#N)c2C)c1	n	n	n	94
COc1cccc(/C=N/Nc2snc(SC)c2C#N)c1	x	x	n	x
CCC(=O)N1CCc2cc(S(=O)(=O)CCC(=O)NCCc3ccc(OC)c(OC)c3)ccc21	n	n	n	107
Cc1sc2ncn(CC(=O)N(CC(=O)NC3CCCC3)Cc3cccs3)c(=O)c2c1C	n	n	123	n
COc1ccc(C(=O)N2C[C@@H]3[C@H](c4ccccc42)[C@H](CO)N3Cc2ccccc2Cl)cc1	n	n	194[16.7 µM]	n
COc1ccc(C(=O)N2C[C@H]3[C@@H](c4ccccc42)[C@@H](CO)N3Cc2ccccc2Cl)cc1	n	n	n	n
O=C(c1cccc(F)c1)N1C[C@H]2[C@@H](c3ccccc31)[C@@H](CO)N2Cc1cocn1	n	100	n	n
O=C(C1CCOCC1)N1C[C@H]2[C@@H](c3ccccc31)[C@@H](CO)N2Cc1ccccc1Cl	n	100	n	n
COc1ccc(CN2[C@H](CO)[C@H]3c4ccccc4NC[C@H]32)cc1	n	n	n	157
CC(C)CC#Cc1cnc2c(c1)C(=O)N([C@H](C)CO)C[C@@H](C)[C@@H](CN(C)Cc1ccccn1)O2	n	n	n	n
FC(F)(F)c1ccc(CN2C[C@@H]3C(c4ccc(C(F)(F)F)cc4)C4(c5cccnc5)CC3(C4)[C@H]2c2ccccc2)cc1 (some centres undefined)	n	n	n	119
COC(=O)c1ccc(C23CC4(C2)[C@H](CN(Cc2ccc(C(F)(F)F)cc2)[C@@H]4c2ccccc2)C3c2ccccc2)cc1 (some centres undefined)	n	n	n	n
N#Cc1ccc(C23CC4(C2)[C@H](CN(Cc2ccc(C(F)(F)F)cc2)[C@@H]4c2ccccc2)C3c2ccccc2)cc1 (some centres undefined)	n	135	n	n
FC(F)(F)c1ccc(CN2C[C@@H]3C(c4ccccc4)C4(c5cccnc5)CC3(C4)[C@H]2c2ccccc2)cc1 (some centres undefined)	n	n	n	n
CO[C@@H]1CN(C)C(=O)c2cc(NC(=O)Nc3ccccc3F)ccc2OC[C@H](C)N(CC2CC2)C[C@@H]1C	n	n	x	n
COc1ccc(Cn2nnnc2C(CC(C)C)N2CCN(c3ccccc3)CC2)cc1 (centres undefined)	n	n	n	n
CCCC(c1nnnn1Cc1ccc(OC)cc1)N1CCN(c2ccccc2)CC1 (centres undefined)	n	n	n	137
Cc1noc(C)c1S(=O)(=O)N(C)C[C@@H]1Oc2ccc(NS(=O)(=O)c3ccc(F)cc3)cc2C(=O)N([C@@H](C)CO)C[C@@H]1C	x	x	n	x
SMILES	Yeast UUG start	Cneo AK release	miR-122 sensor	C2C12 statin
COc1ccc(CCNC(=O)C2CCC(CNc3c(N4CCCC4)c(=O)c3=O)CC2)cc1OC (centres undefined)	x	x	n	86
CN(C)c1ccc(CNC(=O)C2CCC(CNc3c(N4CCCCC4)c(=O)c3=O)CC2)cc1 (centres undefined)	n	n	n	n
CCS(=O)(=O)N1CCCC(C(=O)NCCc2ccc(OC)c(OC)c2)C1 (centres undefined)	n	n	n	127
CC1(C)NC(=O)N(CC(O)CN2C(=O)CCC2=O)C1=O (centres undefined)	n	n	n	n
COc1ccc(OCC(O)CN2C(=O)NC(C)(C)C2=O)cc1 (centres undefined)	n	n	n	121
CC1(C)NC(=O)N(CC(O)Cn2nnc3ccccc32)C1=O (centres undefined)	n	n	n	131
CC1(C)NC(=O)N(CC(O)COc2cccc(F)c2)C1=O (centres undefined)	n	n	n	n
COc1ccc(CN(C)C[C@@H]2Oc3ccc(NS(=O)(=O)c4ccc(C)cc4)cc3CC(=O)N([C@H](C)CO)C[C@H]2C)cc1	n	n	n	u
CC=Cc1ccc2n(c1=O)C[C@@H]1[C@@H](CO)[C@H](C(=O)NCC)[C@H]2N1Cc1ccccc1 (mixture of isomers)	x	n	n	n
CC(C)NC(=O)N[C@@H]1CC[C@H](CCNS(=O)(=O)c2ccc(Cl)cc2)O[C@@H]1CO	n	n	x	n
CC(C)NC(=O)Nc1ccc2c(c1)C(=O)N([C@H](C)CO)C[C@H](C)[C@H](CN(C)C(=O)CCCN(C)C)OCCCC[C@H](C)O2	x	x	n	x
N#Cc1ccc(-c2nnnn2-c2ccc3c(c2)OCO3)cc1	n	n	n	107
CC(C)CCCN1C(N(C)C)=NC[C@@H]1C	n	n	n	n
CCC(C)CCN1C(N(C)C)=NC[C@@H]1C (some centres undefined)	n	n	n	149
CC1(C)NC(=O)N(CNc2cc(Cl)ccc2Cl)C1=O	n	n	n	100
O=C(C1CCC1)N1CC[C@@H]2[C@H](CO)Nc3ccc(C#Cc4cccc(F)c4)cc3[C@@H]21	n	n	n	n
Cc1cc(C)n(CC(O)CN(c2ccccc2)S(=O)(=O)c2ccccc2)n1 (centres undefined)	n	n	n	n
O=S(=O)(c1ccccc1)N(CC(O)COc1ccccc1)c1ccccc1 (centres undefined)	n	n	131	n
O=S(=O)(NCc1ccco1)c1ccc(S(=O)(=O)N2CCCCC2)cc1	n	n	n	118
CC(C)NC(=O)Nc1cccc2c1O[C@H](CN(C)Cc1ccc(Cl)c(Cl)c1)[C@@H](C)CN([C@@H](C)CO)C2=O	x	n	n	n
CCCNC(=O)[C@@H]1[C@@H](CO)[C@@H]2Cn3c(ccc(-c4ccccc4)c3=O)[C@@H]2N1C(=O)C1CCC1	n	n	n	n

Assay outcomes (PubChem)
